This assay relates to AP2M1 MU. Type of assay: binding, human.

As to VSDIDYVPLKSATAIT D3P (VSPIDYVPLKSATAIT), the “PSSM value of the substitution (DMS by phage display)” value (“PSSM value of the substitution” for short) was determined as 0.1041.

Turning to VSDIDYVPLKSATAIT D3Q (VSQIDYVPLKSATAIT), the “PSSM value of the substitution” value was determined as 0.

For VSDIDYVPLKSATAIT D3R (VSRIDYVPLKSATAIT), the “PSSM value of the substitution” value worked out at 0.

In the case of VSDIDYVPLKSATAIT D3S (VSSIDYVPLKSATAIT), the “PSSM value of the substitution” value came out at 0.

For the sequence VSDIDYVPLKSATAIT D3T (VSTIDYVPLKSATAIT), the “PSSM value of the substitution” value was 0.00716.

With VSDIDYVPLKSATAIT D3V (VSVIDYVPLKSATAIT), the “PSSM value of the substitution” value came out at 0.

In the case of VSDIDYVPLKSATAIT D3W (VSWIDYVPLKSATAIT), the “PSSM value of the substitution” value is on record as 0.4233.

On to VSDIDYVPLKSATAIT D3Y (VSYIDYVPLKSATAIT), for which the “PSSM value of the substitution” value was found to be 0.009713.

Regarding VSDIDYVPLKSATAIT D5A (VSDIAYVPLKSATAIT), the “PSSM value of the substitution” value was 0.

In the case of VSDIDYVPLKSATAIT D5D, the “PSSM value of the substitution” value is given as 0.001041.

Turning to VSDIDYVPLKSATAIT D5E (VSDIEYVPLKSATAIT), the “PSSM value of the substitution” value worked out at 0.3037.

As for VSDIDYVPLKSATAIT D5F (VSDIFYVPLKSATAIT), the “PSSM value of the substitution” value is recorded as 0.

For VSDIDYVPLKSATAIT D5G (VSDIGYVPLKSATAIT), the “PSSM value of the substitution” value came to 0.000826.

Regarding VSDIDYVPLKSATAIT D5H (VSDIHYVPLKSATAIT), the “PSSM value of the substitution” value is 0.

Turning to VSDIDYVPLKSATAIT D5I (VSDIIYVPLKSATAIT), the “PSSM value of the substitution” value came to 0.02926.

With VSDIDYVPLKSATAIT D5K (VSDIKYVPLKSATAIT), the “PSSM value of the substitution” value is reported as 0.04531.

Consider VSDIDYVPLKSATAIT D5L (VSDILYVPLKSATAIT), for which the “PSSM value of the substitution” value stood at 0.0005954.

In the case of VSDIDYVPLKSATAIT D5M (VSDIMYVPLKSATAIT), the “PSSM value of the substitution” value was 0.2511.

VSDIDYVPLKSATAIT D5N (VSDINYVPLKSATAIT): the “PSSM value of the substitution” value stood at 0.06519.

VSDIDYVPLKSATAIT D5P (VSDIPYVPLKSATAIT): the “PSSM value of the substitution” value was 0.0007803.

Regarding VSDIDYVPLKSATAIT D5Q (VSDIQYVPLKSATAIT), the “PSSM value of the substitution” value turned out to be 0.005783.

For VSDIDYVPLKSATAIT D5R (VSDIRYVPLKSATAIT), the “PSSM value of the substitution” value is 0.

Regarding VSDIDYVPLKSATAIT D5S (VSDISYVPLKSATAIT), the “PSSM value of the substitution” value was found to be 0.0007803.

For the sequence VSDIDYVPLKSATAIT D5T (VSDITYVPLKSATAIT), the “PSSM value of the substitution” value is 0.1685.

Regarding VSDIDYVPLKSATAIT D5V (VSDIVYVPLKSATAIT), the “PSSM value of the substitution” value is 0.002387.

Regarding VSDIDYVPLKSATAIT D5W (VSDIWYVPLKSATAIT), the “PSSM value of the substitution” value is 0.0003786.

As to VSDIDYVPLKSATAIT D5Y (VSDIYYVPLKSATAIT), the “PSSM value of the substitution” value was determined as 0.1244.

VSDIDYVPLKSATAIT I4A (VSDADYVPLKSATAIT): the “PSSM value of the substitution” value worked out at 0.

For VSDIDYVPLKSATAIT I4D (VSDDDYVPLKSATAIT), the “PSSM value of the substitution” value is given as 8.359e-5.

As to VSDIDYVPLKSATAIT I4E (VSDEDYVPLKSATAIT), the “PSSM value of the substitution” value was found to be 0.

Take VSDIDYVPLKSATAIT I4F (VSDFDYVPLKSATAIT): the “PSSM value of the substitution” value was found to be 0.0005985.

As to VSDIDYVPLKSATAIT I4G (VSDGDYVPLKSATAIT), the “PSSM value of the substitution” value worked out at 0.

As to VSDIDYVPLKSATAIT I4H (VSDHDYVPLKSATAIT), the “PSSM value of the substitution” value was 0.0008136.

For VSDIDYVPLKSATAIT I4I, the “PSSM value of the substitution” value worked out at 0.0002831.

Take VSDIDYVPLKSATAIT I4K (VSDKDYVPLKSATAIT): the “PSSM value of the substitution” value came out at 0.

For VSDIDYVPLKSATAIT I4L (VSDLDYVPLKSATAIT), the “PSSM value of the substitution” value stood at 0.002333.

Regarding VSDIDYVPLKSATAIT I4M (VSDMDYVPLKSATAIT), the “PSSM value of the substitution” value came out at 0.0009955.

For VSDIDYVPLKSATAIT I4N (VSDNDYVPLKSATAIT), the “PSSM value of the substitution” value stood at 4.18e-5.

For VSDIDYVPLKSATAIT I4P (VSDPDYVPLKSATAIT), the “PSSM value of the substitution” value was 0.

VSDIDYVPLKSATAIT I4Q (VSDQDYVPLKSATAIT): the “PSSM value of the substitution” value is on record as 0.

As to VSDIDYVPLKSATAIT I4R (VSDRDYVPLKSATAIT), the “PSSM value of the substitution” value came to 0.

VSDIDYVPLKSATAIT I4S (VSDSDYVPLKSATAIT): the “PSSM value of the substitution” value is listed as 0.000103.

With VSDIDYVPLKSATAIT I4T (VSDTDYVPLKSATAIT), the “PSSM value of the substitution” value came to 0.

As for VSDIDYVPLKSATAIT I4V (VSDVDYVPLKSATAIT), the “PSSM value of the substitution” value is recorded as 0.

Regarding VSDIDYVPLKSATAIT I4W (VSDWDYVPLKSATAIT), the “PSSM value of the substitution” value was 0.

Turning to VSDIDYVPLKSATAIT I4Y (VSDYDYVPLKSATAIT), the “PSSM value of the substitution” value came to 0.9947.

In the case of “VSDIDYVPLKSATAIT I15A (VSDIDYVPLKSATAAT)”, the “PSSM value of the substitution” value was 0.0402.

Take “VSDIDYVPLKSATAIT I15D (VSDIDYVPLKSATADT)”: the “PSSM value of the substitution” value is reported as 0.02534.

As to “VSDIDYVPLKSATAIT I15E (VSDIDYVPLKSATAET)”, the “PSSM value of the substitution” value is 0.003676.

Regarding “VSDIDYVPLKSATAIT I15F (VSDIDYVPLKSATAFT)”, the “PSSM value of the substitution” value turned out to be 0.01325.

“VSDIDYVPLKSATAIT I15G (VSDIDYVPLKSATAGT)”: the “PSSM value of the substitution” value was determined as 0.02833.

As for “VSDIDYVPLKSATAIT I15H (VSDIDYVPLKSATAHT)”, the “PSSM value of the substitution” value was 0.009169.

On to VSDIDYVPLKSATAIT I15I, for which the “PSSM value of the substitution” value turned out to be 0.01278.

Regarding “VSDIDYVPLKSATAIT I15K (VSDIDYVPLKSATAKT)”, the “PSSM value of the substitution” value was 0.02187.

As to “VSDIDYVPLKSATAIT I15L (VSDIDYVPLKSATALT)”, the “PSSM value of the substitution” value is recorded as 0.

Take “VSDIDYVPLKSATAIT I15M (VSDIDYVPLKSATAMT)”: the “PSSM value of the substitution” value is 0.03554.

For the sequence “VSDIDYVPLKSATAIT I15N (VSDIDYVPLKSATANT)”, the “PSSM value of the substitution” value amounted to 0.006464.

Take “VSDIDYVPLKSATAIT I15P (VSDIDYVPLKSATAPT)”: the “PSSM value of the substitution” value is given as 0.

With “VSDIDYVPLKSATAIT I15Q (VSDIDYVPLKSATAQT)”, the “PSSM value of the substitution” value is 0.02097.

On to “VSDIDYVPLKSATAIT I15R (VSDIDYVPLKSATART)”, for which the “PSSM value of the substitution” value is 0.

“VSDIDYVPLKSATAIT I15S (VSDIDYVPLKSATAST)”: the “PSSM value of the substitution” value came to 0.

Turning to “VSDIDYVPLKSATAIT I15T (VSDIDYVPLKSATATT)”, the “PSSM value of the substitution” value came to 0.174.

On to “VSDIDYVPLKSATAIT I15V (VSDIDYVPLKSATAVT)”, for which the “PSSM value of the substitution” value turned out to be 0.01665.

Consider “VSDIDYVPLKSATAIT I15W (VSDIDYVPLKSATAWT)”, for which the “PSSM value of the substitution” value stood at 0.009579.

As for “VSDIDYVPLKSATAIT I15Y (VSDIDYVPLKSATAYT)”, the “PSSM value of the substitution” value was determined as 0.5822.

On to “VSDIDYVPLKSATAIT K10A (VSDIDYVPLASATAIT)”, for which the “PSSM value of the substitution” value was 0.0372.

As for “VSDIDYVPLKSATAIT K10D (VSDIDYVPLDSATAIT)”, the “PSSM value of the substitution” value was 0.001405.

In the case of “VSDIDYVPLKSATAIT K10E (VSDIDYVPLESATAIT)”, the “PSSM value of the substitution” value is on record as 0.5311.

With “VSDIDYVPLKSATAIT K10F (VSDIDYVPLFSATAIT)”, the “PSSM value of the substitution” value turned out to be 0.

On to “VSDIDYVPLKSATAIT K10G (VSDIDYVPLGSATAIT)”, for which the “PSSM value of the substitution” value stood at 0.002648.

As to “VSDIDYVPLKSATAIT K10H (VSDIDYVPLHSATAIT)”, the “PSSM value of the substitution” value was determined as 0.

Consider “VSDIDYVPLKSATAIT K10I (VSDIDYVPLISATAIT)”, for which the “PSSM value of the substitution” value was found to be 0.0001199.

VSDIDYVPLKSATAIT K10K: the “PSSM value of the substitution” value came to 0.000843.

Regarding “VSDIDYVPLKSATAIT K10L (VSDIDYVPLLSATAIT)”, the “PSSM value of the substitution” value was 0.003198.

As to “VSDIDYVPLKSATAIT K10M (VSDIDYVPLMSATAIT)”, the “PSSM value of the substitution” value worked out at 0.1033.

For “VSDIDYVPLKSATAIT K10N (VSDIDYVPLNSATAIT)”, the “PSSM value of the substitution” value came to 0.254.

Consider “VSDIDYVPLKSATAIT K10P (VSDIDYVPLPSATAIT)”, for which the “PSSM value of the substitution” value is recorded as 0.

For “VSDIDYVPLKSATAIT K10Q (VSDIDYVPLQSATAIT)”, the “PSSM value of the substitution” value is 0.

With “VSDIDYVPLKSATAIT K10R (VSDIDYVPLRSATAIT)”, the “PSSM value of the substitution” value is recorded as 0.02159.

In the case of “VSDIDYVPLKSATAIT K10S (VSDIDYVPLSSATAIT)”, the “PSSM value of the substitution” value was 0.02255.

As to “VSDIDYVPLKSATAIT K10T (VSDIDYVPLTSATAIT)”, the “PSSM value of the substitution” value worked out at 0.

For “VSDIDYVPLKSATAIT K10V (VSDIDYVPLVSATAIT)”, the “PSSM value of the substitution” value is on record as 0.0002426.

For “VSDIDYVPLKSATAIT K10W (VSDIDYVPLWSATAIT)”, the “PSSM value of the substitution” value was 0.

Consider “VSDIDYVPLKSATAIT K10Y (VSDIDYVPLYSATAIT)”, for which the “PSSM value of the substitution” value was 0.02179.

Turning to VSDIDYVPLKSATAIT L9A (VSDIDYVPAKSATAIT), the “PSSM value of the substitution” value is recorded as 0.

The record behind these values is article PMC12102759 (Protein Science : A Publication of the Protein Society, 2025).
